The list shows a part of the results, in another mix than the full data. Calls of active or inactive are those of the source. Cut-off read from the data, not from the text of the source: active = inhibition above about 32%; inactive = the rest.
Assay: TEAD-YAP interaction inhibition, primary screen, TEAD-YAP interaction inhibitor project, luminescence, HEK-TIYL cells (AID 1259422);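 note: 0% = median of test compound wells and 100% = reference inhibitor wells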
Settings: TEAD-Gal4/YAP UAS-luciferase luminescence, at 9.12 µM, stronger effect = higher value
In the case of `O=C(c1ccco1)N(Cc1cccnc1)C1CCN(CCc2ccc(Cl)cc2)CC1`, the inhibition is reported as inactive: 2.95%. With `n1[nH]nc2c1c1n[nH]nc1c1n[nH]nc21` the inhibition was inactive: -10.2%. For `CCOc1ccc(NP2(=O)C=C(Cl)N(C)C(=O)N2C)cc1` (configuration not stated), the inhibition was inactive: -4.06%. In the case of `CC(C)(C)C(=O)NC(Sc1ncccn1)C(Cl)(Cl)Cl` (configuration not stated), the inhibition is reported as inactive: -1.81%. With `CCOP(=O)(CN)OCC` the inhibition was inactive: 0.37%. With `CN(CCCl)Cc1cc(Cl)c(NC2=NCCN2)c(Cl)c1` the inhibition was inactive: -6.84%. For `O=P1(Nc2ccccn2)COc2ccccc2OC1`, the inhibition was inactive: 0.96%. For `O=[N+]([O-])c1cc([N+](=O)[O-])c(N2CCCCC2)c([N+](=O)[O-])c1`, the inhibition was inactive: -6.18%. With `CCOc1ccc(NC(=O)c2ccc([N+](=O)[O-])cc2[N+](=O)[O-])c([N+](=O)[O-])c1` the inhibition was inactive: 3.18%. With `COc1ccc2nc(SCc3ccc(C(=O)O)cc3)[nH]c2c1` the inhibition was inactive: 8.13%. For `CCOP(=O)(NC(=NC(C)c1ccccc1)NC(C)c1ccccc1)OCC` (configuration not stated), the inhibition was inactive: -3.42%. With `COc1cccc(OP(=O)(Nc2ccccn2)Oc2cccc(OC)c2)c1` the inhibition was inactive: 12.2%. For `CC(C)OP(=O)(Nc1ccc(Br)cc1)OC(C)C`, the inhibition was inactive: 11.9%. For `CC1(C)COP(=S)(N(C2=NCCC2)c2ccccc2)OC1`, the inhibition was inactive: 3.04%. In the case of `CCCCOP(=O)(Nc1cccc(F)c1)OCCCC`, the inhibition is reported as inactive: 2.66%. For `O=C(Nc1cccc(F)c1)N(Cc1cccnc1)C1CCN(CCc2ccccn2)CC1`, the inhibition was inactive: -9.4%. In the case of `Cc1c(N=Cc2ccc([N+](=O)[O-])cc2)cc([N+](=O)[O-])cc1[N+](=O)[O-]`, the inhibition is reported as inactive: 6.72%. With `CCSP(=O)(c1ccccc1)c1ccccc1` the inhibition was inactive: -5.24%. In the case of `CC(=Nc1cc([N+](=O)[O-])ccc1C)NNc1ccc([N+](=O)[O-])cc1[N+](=O)[O-]`, the inhibition is reported as inactive: -6.43%. In the case of `COP(=O)(OC)Oc1c(Cl)c(Cl)c(O)c(Cl)c1Cl`, the inhibition is reported as inactive: -10.7%. For `O=[N+]([O-])c1ccc(N/N=C/c2ccc([N+](=O)[O-])s2)c([N+](=O)[O-])c1`, the inhibition was inactive: 3.34%. With `O=[N+]([O-])c1ccc(NCCN(CCO)c2ccc([N+](=O)[O-])cc2[N+](=O)[O-])c(Cl)c1` the inhibition was inactive: 5.79%. In the case of `COc1cc([N+](=O)[O-])cc([N+](=O)[O-])c1OCC(=O)N/N=C/c1ccc([N+](=O)[O-])o1`, the inhibition is reported as inactive: 14.9%. For `COc1ccccc1NC1=NCC(CBr)S1` (configuration not stated), the inhibition was inactive: -3.02%. For `O=C(/C=C/c1ccccc1)OC1CN2CCC1CC2` (configuration not stated), the inhibition was inactive: 3.92%. In the case of `O=C(O)C(Cl)CSc1nc2ccccc2o1` (configuration not stated), the inhibition is reported as inactive: -15.8%. With `CN(C)C1(CNC(=O)c2ccc(S(C)(=O)=O)cc2)CCCCC1` the inhibition was inactive: 2.87%. In the case of `COCCN(CCOC)C(=O)COC(=O)C(O)(c1ccccc1)c1ccccc1`, the inhibition is reported as inactive: 8.78%. With `O=C(Cc1ccc(F)cc1)N(Cc1ccco1)C1CCN(CCc2ccccn2)CC1` the inhibition was inactive: -0.08%. With `O=[N+]([O-])c1ccc2c(c1)/C(=N\O)c1cc([N+](=O)[O-])cc([N+](=O)[O-])c1-2` the inhibition was inactive: -0.42%. In the case of `Cc1n[n+]2c([nH]c1=O)SCC(Br)C2c1ccccc1` (configuration not stated), the inhibition is reported as inactive: 3.6%. In the case of `N#Cc1cccc(C(=O)N(Cc2ccco2)C2CCN(CCc3ccccn3)CC2)c1`, the inhibition is reported as inactive: 1.9%. In the case of `Cc1nn(-c2ccccc2)c2c1P(=O)(N1CCOCC1)N(C)C(c1ccccc1)=N2` (configuration not stated), the inhibition is reported as inactive: -9.67%. With `CC(C)NC(=O)N(Cc1cccnc1)C1CCN(CCc2ccccn2)CC1` the inhibition was inactive: -1.16%. In the case of `CCN1C(=O)N(c2ccccc2)P(=S)(OC)c2cc3c(cc21)OCCO3` (configuration not stated), the inhibition is reported as inactive: -11.4%. In the case of `Cc1cc(SC(NC=O)C(Cl)(Cl)Cl)ncn1` (configuration not stated), the inhibition is reported as inactive: 13.8%. For `O=C(CF)NC(Sc1ccccc1)C(Cl)(Cl)Cl` (configuration not stated), the inhibition was inactive: -1.65%. With `Cc1sc2nc3n(c(=O)c2c1C)CC(CI)S3` (configuration not stated) the inhibition was inactive: -6.13%. For `CC(C)OP(=O)(OC(C)C)C(=O)c1ccccc1Cl`, the inhibition was inactive: 3.18%. In the case of `CCCCOP(=S)(CC(=O)N(CC)CC)OCCCC`, the inhibition is reported as inactive: 2.16%. In the case of `CC(C)COP(=O)(Nc1ccc(Br)cc1)OCC(C)C`, the inhibition is reported as inactive: 12.9%. In the case of `O=[N+]([O-])c1ccc(-c2nnc(SCCCl)o2)cc1`, the inhibition is reported as inactive: 4.45%. For `CC(C)(C)C(=O)CSc1nc2ccccc2[nH]1`, the inhibition was inactive: -43.1%. For `O=[N+]([O-])c1cccc(Nc2ccc([N+](=O)[O-])cc2[N+](=O)[O-])c1`, the inhibition was inactive: 3.91%. For `O=C(Cc1ccc(F)cc1)N(Cc1ccco1)C1CCN(CCc2cccs2)CC1`, the inhibition was inactive: -6.52%. In the case of `CC(C)OP(=O)(Nc1nc2ccccc2[nH]1)OC(C)C`, the inhibition is reported as inactive: 6.84%. For `Nc1c([N+](=O)[O-])cc([N+](=O)[O-])c(Nc2ccc(S(N)(=O)=O)cc2)c1[N+](=O)[O-]`, the inhibition was inactive: 5.58%.
